Experimental data taken from patent publication US7074789B2, “Kinase inhibitors” (Amgen Inc., priority 1999, dated 2006).

By UniProt entry, the sequences of proteins in these tests, tags left out. Residues count along the entry.
UniProt P06239, whole entry: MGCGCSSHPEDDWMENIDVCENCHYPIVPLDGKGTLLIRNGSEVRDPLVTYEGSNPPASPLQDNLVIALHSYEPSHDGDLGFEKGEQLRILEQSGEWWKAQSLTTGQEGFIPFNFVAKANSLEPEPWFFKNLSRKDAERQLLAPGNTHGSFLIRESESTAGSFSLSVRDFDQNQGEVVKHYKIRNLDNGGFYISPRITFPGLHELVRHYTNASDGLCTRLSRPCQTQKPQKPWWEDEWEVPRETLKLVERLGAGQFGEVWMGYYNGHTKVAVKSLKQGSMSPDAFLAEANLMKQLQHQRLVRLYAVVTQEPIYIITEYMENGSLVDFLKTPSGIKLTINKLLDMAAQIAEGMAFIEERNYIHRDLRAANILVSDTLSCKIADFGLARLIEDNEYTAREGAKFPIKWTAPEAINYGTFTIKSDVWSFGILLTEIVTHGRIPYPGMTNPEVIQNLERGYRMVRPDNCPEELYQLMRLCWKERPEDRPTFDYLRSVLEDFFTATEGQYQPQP
UniProt P00533, 25-1210 limits assumed: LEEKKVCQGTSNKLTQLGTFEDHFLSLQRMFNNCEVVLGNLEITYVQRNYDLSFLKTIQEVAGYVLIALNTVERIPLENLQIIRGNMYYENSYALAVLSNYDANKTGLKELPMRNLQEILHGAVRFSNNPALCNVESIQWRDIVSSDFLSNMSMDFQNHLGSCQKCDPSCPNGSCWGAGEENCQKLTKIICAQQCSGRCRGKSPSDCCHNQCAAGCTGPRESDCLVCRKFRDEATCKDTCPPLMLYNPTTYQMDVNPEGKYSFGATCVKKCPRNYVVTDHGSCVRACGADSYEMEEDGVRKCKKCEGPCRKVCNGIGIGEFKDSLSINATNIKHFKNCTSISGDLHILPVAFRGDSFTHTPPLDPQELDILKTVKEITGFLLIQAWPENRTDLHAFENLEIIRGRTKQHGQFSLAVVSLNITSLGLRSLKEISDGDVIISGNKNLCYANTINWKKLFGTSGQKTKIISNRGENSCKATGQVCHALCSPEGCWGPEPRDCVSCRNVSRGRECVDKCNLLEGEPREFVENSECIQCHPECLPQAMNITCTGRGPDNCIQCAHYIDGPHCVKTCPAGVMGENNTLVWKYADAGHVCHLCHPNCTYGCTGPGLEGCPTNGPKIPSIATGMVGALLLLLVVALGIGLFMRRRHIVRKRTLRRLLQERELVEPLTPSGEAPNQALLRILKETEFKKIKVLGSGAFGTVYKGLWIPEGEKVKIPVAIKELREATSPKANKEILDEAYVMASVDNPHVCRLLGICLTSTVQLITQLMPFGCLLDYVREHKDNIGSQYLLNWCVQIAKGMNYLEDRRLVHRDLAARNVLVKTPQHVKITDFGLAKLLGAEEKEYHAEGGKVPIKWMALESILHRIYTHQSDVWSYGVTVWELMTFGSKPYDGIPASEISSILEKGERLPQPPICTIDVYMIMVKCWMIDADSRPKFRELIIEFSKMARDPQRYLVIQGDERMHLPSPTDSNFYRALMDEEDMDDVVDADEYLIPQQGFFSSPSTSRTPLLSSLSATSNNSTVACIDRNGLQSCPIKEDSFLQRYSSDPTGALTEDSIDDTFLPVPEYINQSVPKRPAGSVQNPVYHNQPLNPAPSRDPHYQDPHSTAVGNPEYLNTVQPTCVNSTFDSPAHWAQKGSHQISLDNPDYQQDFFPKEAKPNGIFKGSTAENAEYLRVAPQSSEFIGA
UniProt P43403, whole entry: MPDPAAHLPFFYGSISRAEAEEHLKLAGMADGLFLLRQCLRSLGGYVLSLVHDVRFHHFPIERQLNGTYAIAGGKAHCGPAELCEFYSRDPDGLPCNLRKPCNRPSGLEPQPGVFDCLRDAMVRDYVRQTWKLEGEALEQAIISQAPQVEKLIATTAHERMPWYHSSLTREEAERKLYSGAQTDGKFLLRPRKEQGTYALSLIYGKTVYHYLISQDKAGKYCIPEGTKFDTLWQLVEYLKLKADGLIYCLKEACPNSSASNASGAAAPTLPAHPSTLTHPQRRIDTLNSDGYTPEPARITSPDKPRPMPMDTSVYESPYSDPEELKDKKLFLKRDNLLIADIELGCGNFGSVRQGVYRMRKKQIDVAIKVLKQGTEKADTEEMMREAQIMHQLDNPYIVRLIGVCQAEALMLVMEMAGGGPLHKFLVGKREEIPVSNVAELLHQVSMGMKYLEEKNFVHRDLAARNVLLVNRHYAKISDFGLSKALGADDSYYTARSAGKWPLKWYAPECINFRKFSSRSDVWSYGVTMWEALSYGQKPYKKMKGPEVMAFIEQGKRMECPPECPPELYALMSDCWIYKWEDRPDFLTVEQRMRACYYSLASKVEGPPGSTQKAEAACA
UniProt P35968, 20-1356 limits assumed: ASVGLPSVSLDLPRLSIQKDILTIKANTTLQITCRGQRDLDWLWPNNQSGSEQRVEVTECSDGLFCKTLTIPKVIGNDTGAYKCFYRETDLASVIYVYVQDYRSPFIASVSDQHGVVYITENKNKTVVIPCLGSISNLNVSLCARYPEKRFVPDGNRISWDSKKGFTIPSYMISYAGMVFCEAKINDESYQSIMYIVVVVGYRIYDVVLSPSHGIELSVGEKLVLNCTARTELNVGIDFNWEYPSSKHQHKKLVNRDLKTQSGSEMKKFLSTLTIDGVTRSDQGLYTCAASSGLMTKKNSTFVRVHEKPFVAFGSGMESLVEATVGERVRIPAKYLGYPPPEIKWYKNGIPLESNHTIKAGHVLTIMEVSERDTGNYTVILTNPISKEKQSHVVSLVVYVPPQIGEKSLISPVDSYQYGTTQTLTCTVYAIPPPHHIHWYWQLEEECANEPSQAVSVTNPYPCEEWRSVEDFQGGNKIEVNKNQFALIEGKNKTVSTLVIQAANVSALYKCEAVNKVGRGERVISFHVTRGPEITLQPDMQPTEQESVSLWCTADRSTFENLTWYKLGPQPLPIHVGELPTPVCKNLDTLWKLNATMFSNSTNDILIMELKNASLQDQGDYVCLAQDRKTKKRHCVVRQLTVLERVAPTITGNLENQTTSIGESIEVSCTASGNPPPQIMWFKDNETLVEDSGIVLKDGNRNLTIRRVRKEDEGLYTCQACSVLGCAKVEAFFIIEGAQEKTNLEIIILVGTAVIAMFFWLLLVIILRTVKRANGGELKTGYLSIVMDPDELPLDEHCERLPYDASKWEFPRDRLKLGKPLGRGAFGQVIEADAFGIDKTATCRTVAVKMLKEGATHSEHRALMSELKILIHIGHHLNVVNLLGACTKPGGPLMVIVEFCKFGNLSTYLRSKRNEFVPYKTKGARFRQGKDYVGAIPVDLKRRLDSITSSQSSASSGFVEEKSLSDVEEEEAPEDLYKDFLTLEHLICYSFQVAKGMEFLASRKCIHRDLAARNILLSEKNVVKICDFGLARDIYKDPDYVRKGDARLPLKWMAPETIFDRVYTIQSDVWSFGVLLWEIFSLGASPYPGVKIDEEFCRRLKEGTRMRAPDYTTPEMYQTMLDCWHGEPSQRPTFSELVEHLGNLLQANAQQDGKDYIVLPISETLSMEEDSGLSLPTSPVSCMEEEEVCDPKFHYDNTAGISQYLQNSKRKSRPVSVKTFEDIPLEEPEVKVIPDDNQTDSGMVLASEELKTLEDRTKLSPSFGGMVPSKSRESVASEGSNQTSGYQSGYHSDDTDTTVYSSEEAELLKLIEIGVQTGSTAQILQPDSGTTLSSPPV
UniProt Q08881, whole entry: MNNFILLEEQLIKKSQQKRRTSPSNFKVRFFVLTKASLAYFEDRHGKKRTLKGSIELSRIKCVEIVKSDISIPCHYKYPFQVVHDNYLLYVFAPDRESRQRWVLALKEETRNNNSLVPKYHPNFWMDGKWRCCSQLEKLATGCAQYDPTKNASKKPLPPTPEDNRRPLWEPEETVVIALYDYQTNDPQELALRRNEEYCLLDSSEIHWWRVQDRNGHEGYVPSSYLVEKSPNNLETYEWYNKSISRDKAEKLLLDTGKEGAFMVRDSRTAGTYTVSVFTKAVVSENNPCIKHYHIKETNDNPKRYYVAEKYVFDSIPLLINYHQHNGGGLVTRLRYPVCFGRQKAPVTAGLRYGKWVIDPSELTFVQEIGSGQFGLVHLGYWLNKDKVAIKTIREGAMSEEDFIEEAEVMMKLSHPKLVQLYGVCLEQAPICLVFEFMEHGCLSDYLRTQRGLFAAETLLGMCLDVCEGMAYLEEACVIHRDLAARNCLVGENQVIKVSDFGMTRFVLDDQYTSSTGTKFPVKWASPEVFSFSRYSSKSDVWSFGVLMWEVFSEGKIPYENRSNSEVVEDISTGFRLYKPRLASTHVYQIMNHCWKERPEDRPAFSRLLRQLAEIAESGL
UniProt Q9Y243, whole entry: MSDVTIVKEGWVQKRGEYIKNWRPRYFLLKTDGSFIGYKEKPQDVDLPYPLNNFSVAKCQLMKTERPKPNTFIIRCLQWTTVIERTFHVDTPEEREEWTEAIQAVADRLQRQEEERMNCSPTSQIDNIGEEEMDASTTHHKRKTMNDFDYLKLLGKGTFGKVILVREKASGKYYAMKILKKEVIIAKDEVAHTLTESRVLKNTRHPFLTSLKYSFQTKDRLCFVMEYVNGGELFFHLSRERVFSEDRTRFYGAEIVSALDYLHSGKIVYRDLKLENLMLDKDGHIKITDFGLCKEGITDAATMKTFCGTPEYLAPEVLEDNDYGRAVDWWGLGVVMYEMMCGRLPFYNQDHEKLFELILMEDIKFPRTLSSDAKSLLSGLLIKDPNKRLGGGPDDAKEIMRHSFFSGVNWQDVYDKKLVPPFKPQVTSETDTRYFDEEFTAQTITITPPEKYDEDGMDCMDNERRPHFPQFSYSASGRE
UniProt P08581, 25-1390 limits assumed: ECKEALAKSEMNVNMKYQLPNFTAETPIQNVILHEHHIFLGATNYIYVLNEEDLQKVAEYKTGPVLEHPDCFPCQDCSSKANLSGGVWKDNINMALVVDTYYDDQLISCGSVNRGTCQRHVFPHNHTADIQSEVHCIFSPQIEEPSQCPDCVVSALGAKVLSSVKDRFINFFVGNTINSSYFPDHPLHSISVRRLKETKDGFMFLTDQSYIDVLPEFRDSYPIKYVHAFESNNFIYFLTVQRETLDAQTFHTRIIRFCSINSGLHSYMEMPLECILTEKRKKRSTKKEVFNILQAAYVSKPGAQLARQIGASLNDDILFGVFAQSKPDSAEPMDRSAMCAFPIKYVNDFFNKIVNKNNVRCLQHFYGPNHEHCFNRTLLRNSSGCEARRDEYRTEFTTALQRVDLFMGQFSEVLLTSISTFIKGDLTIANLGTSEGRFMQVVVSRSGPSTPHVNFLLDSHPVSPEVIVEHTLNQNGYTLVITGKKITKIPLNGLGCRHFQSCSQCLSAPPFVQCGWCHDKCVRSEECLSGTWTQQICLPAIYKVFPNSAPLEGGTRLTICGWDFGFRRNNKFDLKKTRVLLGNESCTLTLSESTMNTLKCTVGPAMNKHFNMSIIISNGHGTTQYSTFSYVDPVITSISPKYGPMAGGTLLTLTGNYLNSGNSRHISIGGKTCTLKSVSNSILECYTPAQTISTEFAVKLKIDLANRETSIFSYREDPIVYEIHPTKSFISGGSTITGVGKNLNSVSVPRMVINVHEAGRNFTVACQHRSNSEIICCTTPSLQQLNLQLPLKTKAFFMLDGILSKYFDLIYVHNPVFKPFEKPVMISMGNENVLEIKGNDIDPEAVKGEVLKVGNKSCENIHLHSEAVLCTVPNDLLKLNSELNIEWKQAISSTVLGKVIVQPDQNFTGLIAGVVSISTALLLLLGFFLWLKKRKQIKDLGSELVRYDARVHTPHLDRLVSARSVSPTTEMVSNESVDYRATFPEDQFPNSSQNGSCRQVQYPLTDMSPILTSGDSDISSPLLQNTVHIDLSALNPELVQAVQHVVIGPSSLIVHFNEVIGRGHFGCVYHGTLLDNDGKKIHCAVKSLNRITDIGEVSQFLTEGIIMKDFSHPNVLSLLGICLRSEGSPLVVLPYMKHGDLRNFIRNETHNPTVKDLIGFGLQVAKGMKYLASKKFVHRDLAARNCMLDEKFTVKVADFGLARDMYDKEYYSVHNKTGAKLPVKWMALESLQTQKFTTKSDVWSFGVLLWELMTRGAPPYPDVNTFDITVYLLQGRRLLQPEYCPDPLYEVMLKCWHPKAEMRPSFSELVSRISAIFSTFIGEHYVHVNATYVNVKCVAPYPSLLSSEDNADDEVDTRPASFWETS

Legend:
Lck = Lck (Homo sapiens, UniProt P06239); assay: Kinase inhibition assay (33P transfer), Lck; assay type: biochemical; conditions: Table 3
EGFR = EGFR (Homo sapiens, UniProt P00533); assay: Kinase inhibition assay (33P transfer), EGFR; assay type: biochemical; conditions: Table 2, kinase inhibition class
Zap-70 = Zap-70 (Homo sapiens, UniProt P43403); assay: Kinase inhibition assay (33P transfer), Zap-70; assay type: biochemical; conditions: Table 3
Kdr = Kdr (Homo sapiens, UniProt P35968); assay: Kinase inhibition assay (33P transfer), Kdr; assay type: biochemical; conditions: Table 3
Itk = Itk (Homo sapiens, UniProt Q08881); assay: Kinase inhibition assay (33P transfer), Itk; assay type: biochemical; conditions: Table 3
AKT = AKT (Homo sapiens, UniProt Q9Y243); assay: Kinase inhibition assay (33P transfer), AKT; conditions: Table 2, kinase inhibition class
c-Met = c-Met (Homo sapiens, UniProt P08581); assay: Kinase inhibition assay (33P transfer), c-Met; assay type: biochemical; conditions: Table 2, kinase inhibition class

## O=c1[nH]c2ccccc2n1-c1ncnc(Nc2cccc(NS(=O)(=O)c3ccc([N+](=O)[O-])cc3)c2)n1
Lck
  Lck-1: E (E>4.5 ug/mL)
EGFR
  EGFR-1: B (B>0.4 and <2.4 ug/mL)
Zap-70
  Zap-1: E (E>4.5 ug/mL)
Kdr
  KDR-1: B (B>0.4 and <2.4 ug/mL)
Itk
  Itk-1: E (E>4.5 ug/mL)
AKT
  AKT3-1: C (C>2.4 and <3.5 ug/mL)
c-Met
  Met-1: C (C>2.4 and <3.5 ug/mL)
